# In patent publication US5110831A, “Vinylogous hydroxamic acids and derivatives thereof as 5-lipoxygenase inhibitors” (Du Pont Merck Pharmaceutical Company, priority 1990, dated 1992):
# Biological target: T1, RBL-1 5-Lipoxygenase (Rattus norvegicus, UniProt P12527)
# T1 construct: supernatant from homogenized RBL-1 cells; endogenous in cells; host or cells: RBL-1 cells (10,000×g supernatant of homogenate)
# T1 sequence (P12527 1-673): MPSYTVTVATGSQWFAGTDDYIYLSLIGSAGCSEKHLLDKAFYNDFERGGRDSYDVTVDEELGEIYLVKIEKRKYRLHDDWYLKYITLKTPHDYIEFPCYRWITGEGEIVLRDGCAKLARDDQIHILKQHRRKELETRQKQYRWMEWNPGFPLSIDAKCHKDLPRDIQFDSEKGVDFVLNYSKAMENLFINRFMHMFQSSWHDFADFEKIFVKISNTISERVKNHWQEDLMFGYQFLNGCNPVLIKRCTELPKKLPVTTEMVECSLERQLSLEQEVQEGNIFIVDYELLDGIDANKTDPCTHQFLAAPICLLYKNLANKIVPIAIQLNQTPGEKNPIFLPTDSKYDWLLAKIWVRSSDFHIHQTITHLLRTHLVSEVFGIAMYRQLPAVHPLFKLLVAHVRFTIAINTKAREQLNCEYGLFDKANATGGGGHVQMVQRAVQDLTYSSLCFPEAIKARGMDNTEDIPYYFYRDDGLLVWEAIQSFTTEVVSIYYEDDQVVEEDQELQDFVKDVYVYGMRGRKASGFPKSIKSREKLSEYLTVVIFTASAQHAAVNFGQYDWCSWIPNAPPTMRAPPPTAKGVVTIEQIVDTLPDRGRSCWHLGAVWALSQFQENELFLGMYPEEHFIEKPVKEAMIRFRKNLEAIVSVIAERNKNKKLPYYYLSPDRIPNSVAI
# Assay: RBL-1 5-lipoxygenase assay (10,000×g supernatant from homogenized RBL-1 cells, [14C] arachidonic acid)
# Assay type: biochemical
# Settings: pH 7.0, 37° C., 5 min preincubation, 0.042 mM arachidonic acid; linear regression on three concentrations
# Procedure: The potencies of the compounds as 5-lipoxygenase inhibitors were determined using a RBL-1 5-lipoxygenase assay. The procedure of Jakschik et al. was used (Jakschik, B. A.; Lee, L. H.; Shuffer, G.; Parker, C. W., Prostaglandins, 1978, 16, 733; Jakschik, B. A.; Sun, F. F.; Lee, L. H.; Steinhoff, M. M. Biochem. Biophys. Res. Commun., 1980, 95, 100; […]., Biochem. Biophys. Res. Commun., 1981, 102, 624). The enzyme was prepared as a 10,000×gsupernatant from homogenized RBL-1 cells. Because of variability in the enzyme content from culture to culture, an amount of supernatant was chosen to give a net production of 3300-3800 dpm of 5-HETE under the assay conditions (total cell protein 9-20 μg/assay). All reactions were run in duplicate. In a total volume of 100 μL, the appropriate amount of enzyme was incubated with test compound (prepared in 5% DMSO, 95% 0.2 M Tris, pH 8.5) in a phosphate buffer (45 mM sodium phosphate, 0.83 mM EDTA, 0.083% gelatin, 0.1 mM glutathione, 0.83 mM calcium chloride, 0.012 mM indomethacin) at pH 7.0 and 37° C. for 5 min. The reaction was initiated by the addition of 20 μL of a solution of arachidonic acid in phosphate buffer. […] Activity was measured as the total radioactivity in the 5-LO products, and inhibition was calculated at (1-D/C)×100%, where D is the activity in the presence of the test compound and C is the control activity.
compound,measurement,value
CN(O)C=CC(=O)c1ccc(-c2ccccc2)cc1 [Example 1r],pIC50,7.22

# pIC50: −log10 of the molar value.
